Tested on: ovarian cancer cells with (OVCAR8, OVCAR4) or without (OVSAHO, CAOV3) MYC-HSF1 amplification
Test: Epigenetic inhibitor drug screen, cell viability (Cell Titer Blue)
Type: cell-based

## Sephin1
  Non Amp - AMP (POC) 10 uM: 2.094 POC
